The numbers were not newly measured in publication PMC8739840, “Structural and Molecular Insight into Piperazine and Piperidine Derivatives as Histamine H3 and Sigma-1 Receptor Antagonists with Promising Antinociceptive Properties” (ACS Chemical Neuroscience, 2021), which cites them from elsewhere.

The data set concerns the target H3R. Particulars: pitolisant; read-out: hH3R Ki; cited from earlier work.

On to `Clc1ccc(CCCOCCCN2CCCCC2)cc1` [PIT, Pitolisant], for which the Ki (in general, the equilibrium dissociation constant of an inhibitor or competing ligand from its target) is 1 to 2.4 nM.
